Measured values taken from ChEMBL document CHEMBL1140997, “Synthesis and biological evaluation of a library of resveratrol analogues as inhibitors of COX-1, COX-2 and NF-kappaB” (Bioorg Med Chem, 2009).

Chains of the proteins cited; added tags and fusions are not shown.
UniProt P23219, whole entry: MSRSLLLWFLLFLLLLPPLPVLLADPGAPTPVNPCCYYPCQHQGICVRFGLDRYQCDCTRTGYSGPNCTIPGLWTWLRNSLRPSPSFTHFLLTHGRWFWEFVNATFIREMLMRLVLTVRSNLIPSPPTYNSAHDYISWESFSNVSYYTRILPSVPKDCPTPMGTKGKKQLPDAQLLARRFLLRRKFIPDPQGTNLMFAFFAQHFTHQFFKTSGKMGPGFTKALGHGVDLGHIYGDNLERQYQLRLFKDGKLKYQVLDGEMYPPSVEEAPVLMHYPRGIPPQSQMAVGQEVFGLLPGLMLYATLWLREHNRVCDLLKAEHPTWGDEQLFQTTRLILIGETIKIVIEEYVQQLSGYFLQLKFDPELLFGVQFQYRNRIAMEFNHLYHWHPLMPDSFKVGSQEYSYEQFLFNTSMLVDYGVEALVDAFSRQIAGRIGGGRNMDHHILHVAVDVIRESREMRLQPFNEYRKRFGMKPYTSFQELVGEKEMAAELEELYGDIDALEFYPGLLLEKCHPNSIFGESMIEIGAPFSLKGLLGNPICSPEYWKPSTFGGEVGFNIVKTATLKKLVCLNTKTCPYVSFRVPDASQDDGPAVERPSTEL

Molecular target: Prostaglandin G/H synthase 1 (Homo sapiens, UniProt P23219)
Experiment: Inhibition of COX1
Outline: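 Reaction in 100 mM Tris-HCl pH 8.0 containing 1 µM heme, 500 µM phenol and 300 µM epinephrine, with enough COX-1 to make 150 ng/ml PGE2. Started with arachidonic acid (10 µM final), 10 min at room temperature, stopped into indomethacin. PGE2 measured by ELISA against a PGE2 standard curve. Values are % of solvent control; IC50 from four serial dilutions, mean of two experiments.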

With `Oc1ccc(/C=C/c2cc(O)cc(O)c2)cc1` [RESVERATROL] the IC50 was 0.83 µM.
